Biological target: DHODH (Rattus norvegicus, UniProt Q63707)
Assay: Inhibition assay of DHODH activity (rat enzyme, head printed 'rate')
Assay type: biochemical
Conditions: read-out: rate IC50-Value; class symbols (in nM)

The chains behind the UniProt entries cited, without tags or fusion partners.
UniProt Q63707, whole entry: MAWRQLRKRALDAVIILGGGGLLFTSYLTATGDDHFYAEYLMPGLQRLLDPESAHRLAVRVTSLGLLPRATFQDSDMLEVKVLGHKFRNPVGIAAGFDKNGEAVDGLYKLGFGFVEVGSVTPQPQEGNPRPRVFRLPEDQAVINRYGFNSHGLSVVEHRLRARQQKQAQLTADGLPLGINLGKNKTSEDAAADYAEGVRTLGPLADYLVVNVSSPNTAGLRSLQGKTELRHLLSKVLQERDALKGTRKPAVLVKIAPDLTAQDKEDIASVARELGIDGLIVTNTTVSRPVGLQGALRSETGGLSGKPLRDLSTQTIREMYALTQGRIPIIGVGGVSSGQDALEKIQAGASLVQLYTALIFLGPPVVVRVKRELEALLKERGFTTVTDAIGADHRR

Question: For `COc1ccccc1-c1cc(F)c(NC(=O)C2=C(C(=O)O)COC2)c(F)c1`, which IC50 is on record?
Answer: < 800 nM

Source: US20060199856A1, “Novel compounds as anti-inflammatory, immunomodulatory and anti-proliferatory agents” (4 SC AG, priority 2001, published 2006)
